# Results taken from publication PMC7374170, “TRIB3-EGFR interaction promotes lung cancer progression and defines a therapeutic target” (Nature Communications, 2020).
# What was measured:
# [1] = tested on: EGFR signaling proteins in xenograft tumors; experiment: Immunoblot / CO-IP of xenograft tumor tissue; assay type: in vivo; settings: NCI-H1975 inoculated mice, long-term treatment
# NCI-H1975 cells = experiment: Immunoblot of EGFR, HER2 and receptor tyrosine kinases, NCI-H1975 cells; assay type: cell-based, human; settings: short- or long-term treatment
smiles,measurement,setting,value
COc1cc2ncnc(Nc3ccc(F)c(Cl)c3)c2cc1OCCCN1CCOCC1 [gefitinib],"expression / phosphorylation of STAT3, STAT5 (and ERK1/2) in xenograft tumor tissue",[1],markedly induced phosphorylation
same,EGFR phosphorylation and expression in H1975,NCI-H1975 cells,had no effect on EGFR phosphorylation
